# Values of other authors as cited in patent US6410340B1, “Use of an 8.4 kDa protein as an immunophilin reagent in protein binding assays for immunosuppressive drugs” (Children's Research Institute, priority 2000, dated 2002).
# Details: patients; cited from earlier work
substance,measurement,value
cyclosporin A [CsA],fraction in the blood in the form of the parent compound,approximately ⅓
